This is an account of results in patent US20220079876A1, “OCULAR IMPLANT CONTAINING A TYROSINE KINASE INHIBITOR” (Ocular Therapeutix, Inc., priority 2020, published 2022).

For data set [1] the following is noted: rabbit, 1 month.
For data set [2] the following is noted: mice, uveal tract of the eye (INLYTA support, NDA202324); cited from earlier work.
[3] abbreviates: 600 μg axitinib bolus, scale 0-5, mean (SD).
The mark [4] stands for this setting: intravitreal bolus of 600 μg axitinib suspension.

Consider `CNC(=O)c1ccccc1Sc1ccc2c(/C=C/c3ccccn3)n[nH]c2c1` [axitinib, N-methyl-2-[3-((E)-2-pyridin-2-yl-vinyl)-1H-indazol-6-ylsulfanyl]-benzamide], for which, in data set [1] (setting [3]), the “Chronic Subcorneal Inflammation, histopathology score” value is recorded as 0.28 (0.38); the “Fibrosis Around the Article, histopathology score” value is 0.00 (0.00); the “Retinal Disruption, histopathology score” value is 0.10 (0.11); the “Retinal Vacuolization, histopathology score” value was 0.50 (0.46). In addition, in data set [1] (setting [3]), the “Retinal, Scleral, or Episcleral Inflammation, histopathology score” value is 0.03 (0.05) and the “Vitreous Chamber Inflammation, histopathology score” value was 0.23 (0.21). Besides, the “IOP, determined weekly” value in data set [1] (intravitreal bilateral bolus of 600 μg axitinib suspension in ProVisc) is reported as “remained within the normal range”. Besides, in data set [1] (setting [4]), the “Eyes with minimal retinal disruption with a few macrophages in the photoreceptor layer” value was 1 of 6, the “Eyes with minimal retinal vacuolization” value is on record as 4 of 6, the “Eyes with minimal to mild chronic subcorneal inflammation” value is listed as 4 of 6 and the Gross lesions entry is recorded as “No gross lesions”. For the same compound, in data set [1] (setting [4]), the “Inflammation around the axitinib injection site” value was “Minimal histiocytic and multinucleated giant cell inflammation”; the “Mild focal retinal disruptions in proximity to the puncture location” value is listed as “two eyes”. For the same compound, in data set [2], the Melanin binding entry is listed as “bind to melanin in the uveal tract of the eye”.
